tested on: huPPARα; test: Cotransfection assay in CV-1 cells, huPPARα; settings: GAL4 chimeric system, relative to PPARα agonist reference molecule

Compound | huPPARα CTF Efficacy [%]
Cc1oc(-c2ccccc2)nc1CCOc1ccc(C[C@](C)(Oc2ccccc2)C(=O)O)cc1 [Example 3, (S)-3-{4-[2-(2-Phenyl-5-methyl-oxazol-4-yl)-ethoxy]-phenyl}-2-methyl-2-phenoxy-propionic acid] | 70
Cc1oc(-c2cccs2)nc1CCOc1ccc(CC(C)(Oc2ccccc2)C(=O)O)cc1 (racemic) [Example 4, rac-2-Methyl-3-{4-[2-(5-methyl-2-thiophen-2-yl-oxazol-4-yl)-ethoxy]-phenyl}-2-phenoxypropionic acid] | 80
Cc1oc(-c2ccccc2)nc1CCOc1ccc(C[C@@](C)(Oc2ccccc2)C(=O)O)cc1 [Example 2, (R)-3-{4-[2-(2-Phenyl-5-methyl-oxazol-4-yl)-ethoxy]-phenyl}-2-methyl-2-phenoxy-propionic acid] | 59
Cc1oc(-c2cccs2)nc1CCOc1ccc(C[C@@](C)(Oc2ccccc2)C(=O)O)cc1 [Example 5, (R)-2-Methyl-3-{4-[2-(5-methyl-2-thiophen-2-yl-oxazol-4-yl)-ethoxy]-phenyl}-2-phenoxypropionic acid] | 65
Cc1oc(C2CCCCC2)nc1CCOc1ccc(CC(C)(Oc2ccccc2)C(=O)O)cc1 (stereo not shown) [Example 7, 2-Methyl-3-(4-{2-[5-methyl-2-cyclohexyl-oxazol-4-yl]-ethoxy}-phenyl)-2-phenoxypropionic acid] | 82
Cc1oc(-c2cccs2)nc1CCOc1ccc(C[C@](C)(Oc2ccccc2)C(=O)O)cc1 [Example 6, (S)-2-Methyl-3-{4-[2-(5-methyl-2-thiophen-2-yl-oxazol-4-yl)-ethoxy]-phenyl}-2-phenoxypropionic acid] | 72
Cc1oc(-c2ccccc2)nc1CCOc1ccc(CC(C)(Oc2ccccc2)C(=O)O)cc1 (racemic) [Example 1, rac-3-{4-[2-(2-Phenyl-5-methyl-oxazol-4-yl)-ethoxy]-phenyl}-2-methyl-2-phenoxy-propionic acid] | 70

— patent US7345070B2, “Peroxisome proliferator activated receptor agonists” (Eli Lilly and Company, priority 2000, dated 2008)
